# Assay results taken from patent publication US20090304692A1, “TRIAZINE COMPOUNDS AS PI3 KINASE AND MTOR INHIBITORS” (Wyeth, priority 2008, published 2009).
# Target: Human mTOR (FLAG-TOR) (Homo sapiens, UniProt P42345)
# Test: mTOR kinase assay (DELFIA format, purified enzyme)
# Format: biochemical
# Conditions: read-out: IC50 mTOR
structure (smiles),measurement,value
"COc1nc(-c2ccc(NC(=O)Nc3ccc(C(=O)N4CCNC(C)(C)C4)cc3)cc2)nc(N2CCOCC2)n1 [Example 247, 1-{4-[(3,3-dimethylpiperazin-1-yl)carbonyl]phenyl}-3-[4-(4-methoxy-6-morpholin-4-yl-1,3,5-triazin-2-yl)phenyl]urea]",IC50,19 nM
